Laboratory results from ChEMBL document CHEMBL6127080, “Design, synthesis and biological evaluation of novel diphenylamine analogues as NLRP3 inflammasome inhibitors” (Bioorg Med Chem, 2024).

Sequences of proteins named here, by UniProt entry; tags and fusion partners are left off.
UniProt Q8R4B8, whole entry: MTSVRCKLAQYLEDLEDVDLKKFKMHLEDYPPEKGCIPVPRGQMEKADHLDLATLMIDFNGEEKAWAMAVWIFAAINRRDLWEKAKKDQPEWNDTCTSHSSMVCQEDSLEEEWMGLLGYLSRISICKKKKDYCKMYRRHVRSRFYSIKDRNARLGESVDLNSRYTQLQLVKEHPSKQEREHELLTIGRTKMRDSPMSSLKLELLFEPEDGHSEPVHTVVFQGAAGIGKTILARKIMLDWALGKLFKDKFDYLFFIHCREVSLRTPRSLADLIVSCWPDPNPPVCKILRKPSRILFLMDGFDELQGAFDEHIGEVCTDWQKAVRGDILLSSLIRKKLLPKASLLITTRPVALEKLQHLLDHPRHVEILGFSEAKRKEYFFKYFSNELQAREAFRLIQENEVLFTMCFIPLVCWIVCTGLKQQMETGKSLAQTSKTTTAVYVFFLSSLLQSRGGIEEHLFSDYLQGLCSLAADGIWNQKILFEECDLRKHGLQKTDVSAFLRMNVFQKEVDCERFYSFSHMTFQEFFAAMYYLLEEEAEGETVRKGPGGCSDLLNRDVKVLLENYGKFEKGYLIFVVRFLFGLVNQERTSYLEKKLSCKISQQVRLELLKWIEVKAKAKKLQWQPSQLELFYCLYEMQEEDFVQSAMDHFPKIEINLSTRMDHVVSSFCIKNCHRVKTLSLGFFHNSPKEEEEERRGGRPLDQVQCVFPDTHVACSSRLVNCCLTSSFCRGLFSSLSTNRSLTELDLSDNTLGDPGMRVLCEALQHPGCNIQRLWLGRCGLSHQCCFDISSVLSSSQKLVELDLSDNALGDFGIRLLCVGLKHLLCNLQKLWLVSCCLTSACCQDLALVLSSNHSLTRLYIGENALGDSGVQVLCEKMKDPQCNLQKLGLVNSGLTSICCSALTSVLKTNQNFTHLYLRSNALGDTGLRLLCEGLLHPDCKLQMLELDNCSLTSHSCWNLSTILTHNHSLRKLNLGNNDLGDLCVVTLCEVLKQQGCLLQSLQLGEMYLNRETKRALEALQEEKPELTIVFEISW

Experiments:
Type in all cases: cell-based
[1] = target: T1, NACHT, LRR and PYD domains-containing protein 4E (Mus musculus) (UniProt Q66X19); assay: Inhibition of NLRP4 inflammasome in mouse J774.A1 cells assessed as reduction in LPS/flagellin induced IL-1beta level at 10 uM pretreated with LPS for 1 hr followed by flagellin addition and measured after 6 hrs by ELISA; conditions: time 7.0 hrs
T1 sequence (whole entry): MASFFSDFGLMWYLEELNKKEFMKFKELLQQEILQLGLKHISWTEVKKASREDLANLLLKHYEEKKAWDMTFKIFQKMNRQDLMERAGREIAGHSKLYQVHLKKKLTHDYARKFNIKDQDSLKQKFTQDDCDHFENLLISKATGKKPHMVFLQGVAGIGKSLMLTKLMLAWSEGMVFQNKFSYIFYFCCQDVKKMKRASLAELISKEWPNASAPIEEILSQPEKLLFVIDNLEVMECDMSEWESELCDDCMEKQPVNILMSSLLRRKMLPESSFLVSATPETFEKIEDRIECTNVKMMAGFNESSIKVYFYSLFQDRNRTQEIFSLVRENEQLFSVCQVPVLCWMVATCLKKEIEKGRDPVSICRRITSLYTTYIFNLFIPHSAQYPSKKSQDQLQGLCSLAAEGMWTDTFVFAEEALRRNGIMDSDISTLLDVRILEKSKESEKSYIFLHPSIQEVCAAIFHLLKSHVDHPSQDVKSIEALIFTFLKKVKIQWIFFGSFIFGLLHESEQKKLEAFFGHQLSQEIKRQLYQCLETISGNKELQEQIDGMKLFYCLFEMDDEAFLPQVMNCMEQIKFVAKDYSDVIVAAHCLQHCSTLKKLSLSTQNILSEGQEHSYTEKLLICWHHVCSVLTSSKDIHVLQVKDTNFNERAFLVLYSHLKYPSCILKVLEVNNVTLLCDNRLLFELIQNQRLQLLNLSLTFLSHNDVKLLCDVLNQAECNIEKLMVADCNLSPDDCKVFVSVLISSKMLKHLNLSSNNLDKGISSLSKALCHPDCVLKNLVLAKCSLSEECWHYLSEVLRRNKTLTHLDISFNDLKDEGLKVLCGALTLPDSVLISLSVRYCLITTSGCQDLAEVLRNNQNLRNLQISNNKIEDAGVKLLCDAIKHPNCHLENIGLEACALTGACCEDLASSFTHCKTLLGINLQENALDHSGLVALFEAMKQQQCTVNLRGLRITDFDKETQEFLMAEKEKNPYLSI

[2] = target: NACHT, LRR and PYD domains-containing protein 3 (Mus musculus) (UniProt Q8R4B8); assay: Inhibition of NLRP3 inflammasome in mouse J774.A1 cells assessed as reduction in LPS/ATP induced caspase-1 p20 level pretreated with LPS for 4.5 hrs prior to compound addition for 2.5 hrs followed by ATP addition for 30 mins by Western blotting analysis; conditions: dose 3-30 µM, time 7.5 hrs
[3] = target: NACHT, LRR and PYD domains-containing protein 3 (Mus musculus) (UniProt Q8R4B8); assay: Inhibition of NLRP3 inflammasome in mouse J774.A1 cells assessed as reduction in LPS/ATP induced IL-1beta level pretreated with LPS for 4.5 hrs prior to compound addition for 2.5 hrs followed by ATP addition for 30 mins by Western blotting analysis; conditions: dose 3-30 µM, time 7.5 hrs

inhibition [1]: inactive
inhibition [2]: Dose-Dependent Effect
inhibition [3]: Dose-Dependent Effect
Compound: CCC(=O)Nc1ccc(-c2ccccc2N(Cc2cc(Cl)ccc2OCCOC)C(=O)c2ccc(F)cc2)cc1

The source made the active and inactive calls. The rule behind the calls is not given here.
